Literature values, collected in patent US20020032197A1 (priority 1998, published 2002).

Test system: serotonergic receptors
Conditions: in vitro

O=C(NCCN1CCOCC1)c1ccc(Cl)cc1 [moclobemide, p-chloro-N-(2-morpholinoethyl)-benzamide]
affinity for serotonergic receptors: no appreciable affinity
